Results published in PubChem BioAssay AID687 (PCMD, 2007).
This is a selection; strong and weak results do not stand in their true shares. Calls of active or inactive are those of the source.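 How the source made its calls: active means inhibition above 40% in the primary screen; inactive means the rest.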

Protein sequences, listed by entry. Tags and fused reporters are not part of them.
UniProt P03951, whole entry, looked up: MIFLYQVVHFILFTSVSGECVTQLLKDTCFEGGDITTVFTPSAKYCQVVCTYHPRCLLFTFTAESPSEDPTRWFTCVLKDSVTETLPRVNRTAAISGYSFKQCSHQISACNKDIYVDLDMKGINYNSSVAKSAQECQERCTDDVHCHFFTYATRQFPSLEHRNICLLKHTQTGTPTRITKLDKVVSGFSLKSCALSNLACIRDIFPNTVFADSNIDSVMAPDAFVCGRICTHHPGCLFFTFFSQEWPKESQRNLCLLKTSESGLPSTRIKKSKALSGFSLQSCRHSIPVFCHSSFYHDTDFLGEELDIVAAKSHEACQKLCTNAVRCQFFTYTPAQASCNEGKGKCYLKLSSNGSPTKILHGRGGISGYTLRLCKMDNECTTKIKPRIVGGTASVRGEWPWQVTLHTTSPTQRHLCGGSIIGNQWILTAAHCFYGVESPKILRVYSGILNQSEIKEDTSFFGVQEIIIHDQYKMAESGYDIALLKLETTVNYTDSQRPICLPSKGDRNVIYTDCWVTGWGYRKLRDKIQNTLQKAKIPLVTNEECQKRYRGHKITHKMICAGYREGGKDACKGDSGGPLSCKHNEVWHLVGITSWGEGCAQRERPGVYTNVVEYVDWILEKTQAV

These compounds were tested against Coagulation factor XI (Homo sapiens) (UniProt P03951) (assay: human FXIa protease inhibitors, primary screen, biochemical, single compound per well (AID 687;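 further: 0% = enzyme without compound and 100% = blank wells lacking enzyme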)). Conditions: purified human FXIa, fluorogenic AMC substrate cleavage; at 10 µM; stronger effect = higher value.
Cc1cccc(OCC(=O)OC2CN3CCC2CC3)c1 (stereo not drawn) was tested, and the inhibition was inactive: -1.47%. With CC1(CBr)Cn2c(nc3ccccc3c2=O)S1 (stereo not drawn) the inhibition was inactive: 2.05%. CCC(C)N(CC(C)C)C(=S)SC(NC(C)=O)C(Cl)(Cl)Cl (stereo not drawn) was tested, and the inhibition was inactive: 1.57%. Oc1ccccc1CNc1ccccn1 was tested, and the inhibition was inactive: 4.18%. In the case of CCOP(=O)(Nc1ccccc1)OCC, the inhibition is reported as inactive: -4.56%. CC1CCN(C(=O)Oc2c(Cl)cc(Cl)c3cccnc23)CC1 was tested, and the inhibition was inactive: 4.51%. In the case of O=[N+]([O-])c1cccc2n[nH]nc12, the inhibition is reported as inactive: 18.6%. COC(=O)c1cc2c(s1)N=C(c1ccccc1)N(C)P2(=O)N1CCOCC1 (stereo not drawn) was tested, and the inhibition was inactive: -0.3%.
